Earlier results on 1 substance are cited in patent US6770674B1, “Mollusc repellent” (priority 1998, dated 2004).

The subject of the series is Rat. The settings on record: oral; cited from earlier work.

As to Copper nitrate, the “LD50 (Rat)” value was 940 mg/kg.
